# From patent US20220072138A1, “NRTI THERAPIES” (THE UNIVERSITY OF LIVERPOOL, priority 2018, published 2022)
# Settings: phosphate buffer 100 mM, pH 7.4, 37° C.; compounds 2, 5 and 8 compared
substance,measurement,value
N-(4-methoxyphenyl)-tenofovir alafenamide carbamate [TAF carbamate 2],relative rate of hydrolytic cleavage,fastest
